From BindingDB's records for doi:10.1016/j.bmcl.2010.08.118 (Roche Palo Alto, 2010)

Assay: Inhibition of CCR5 by cell-cell fusion inhibition assay

Structure (SMILES): Cc1cc(C#N)nc(C)c1C(=O)N1C[C@H]2CN(CCC(c3ccccc3)C3CCN(S(C)(=O)=O)CC3)C[C@H]2C1 (stereo partly drawn) [4,6-dimethyl-5-((3aR,6aS)-5-(3-(1-(methylsulfonyl)piperidin-4-yl)-3-phenylpropyl)octahydropyrrolo[3,4-c]pyrrole-2-carbonyl)picolinonitrile]
- IC50: 1.2 nM
